Read-outs that look alike come from different tables or passages of the source.
Experiments:
[1] = Brain-to-plasma distribution after i.v. lapatinib infusion to steady state; type: in vivo, mice; conditions: lowered by ∼0.01 mL/g
[2] = system: P-gp (ABCB1) and BCRP (ABCG2); conditions: knockout of both P-gp and BCRP; cited from earlier work
[3] = system: P-gp (ABCB1); conditions: P-gp knockout mice; cited from earlier work
[4] = 14C-lapatinib distribution after intravenous dosing; type: in vivo, mice; conditions: 10 mg/kg i.v., 30 min
[5] = female, NuNu, mouse, in vivo, po, 100 mg/kg
[6] = cited from earlier work

Row | Compound | Brain/plasma ratio of Polli et al after vascular correction [1] | Brain-to-plasma lapatinib ratio [2] | Increase of brain-to-plasma lapatinib ratio [2] | Increase of brain-to-plasma ratio [3] | Steady-state brain-to-plasma distribution ratio [3] | Average accumulation in brain metastases relative to normal brain [4] | Brain-to-plasma concentration ratio after vascular correction ([5]; 2 h) | Mean brain-to-plasma ratio in brain metastases ([5]; 2 h) | Brain-to-plasma concentration ratio after vascular correction ([5]; 12 h) | Mean brain-to-plasma ratio in brain metastases ([5]; 12 h) | Concentration in CSF, times lower than in serum [6]
1 | CS(=O)(=O)CCNCc1ccc(-c2ccc3ncnc(Nc4ccc(OCc5cccc(F)c5)c(Cl)c4)c3c2)o1 [lapatinib, N-{3-chloro-4-[(3-fluorobenzyl)oxy]phenyl}-6-[5-({[2-(methylsulfonyl)ethyl]amino}methyl)-2-furyl]-4-quinazolinamine] | 0.02-0.03 | 1.2- 1.7 | 50-60 fold | 4-5 fold | 0.08 – 0.15 | 3.2 fold | 0.013 | 0.09 | 0.028 | 0.26 | 
2 | trastuzumab: a humanized monoclonal antibody to HER2 |  |  |  |  |  |  |  |  |  |  | 300 times
